In the assay the target is T1, 15-PGDH de type 1 (Homo sapiens, UniProt P15428).
T1 construct: made in house
T1 sequence (P15428 1-266): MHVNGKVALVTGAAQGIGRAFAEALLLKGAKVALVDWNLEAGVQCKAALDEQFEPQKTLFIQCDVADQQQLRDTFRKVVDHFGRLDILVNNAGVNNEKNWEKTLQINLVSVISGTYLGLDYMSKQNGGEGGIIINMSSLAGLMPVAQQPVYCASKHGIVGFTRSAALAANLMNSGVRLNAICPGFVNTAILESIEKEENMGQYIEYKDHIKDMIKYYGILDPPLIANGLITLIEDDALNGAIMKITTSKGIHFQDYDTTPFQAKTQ
The assay can be described thus: Test on 15-PGDH type 1 (spectrophotometric, NADH formation at 340 nm, PGE2 substrate). Format: biochemical. How it is done:
L'enzyme 15-PGDH est obtenue comme décrit dans la demande FR 02/05067 déposée au nom de L'Oréal, en suspension dans un milieu adapté à une concentration de 0,3 mg/mL puis bloquée à - 80°C. Pour les besoins du test, cette suspension est décongelée et stockée dans de la glace.
Par ailleurs on prépare un tampon Tris 100 mM, pH = 7,4, contenant 0,1 mM de dithiothréitol (D5545, Sigma-Aldrich, L'isle D'Abeau Chesne, BP 701, 38297, Saint Quentin Fallavier), 1,5 mM de β-NAD (N6522, Sigma-Aldrich, L'isle D'Abeau Chesne, BP 701, 38297, Saint Quentin Fallavier), 50 µM de Prostaglandine E2 (P4172, Sigma-Aldrich, L'isle D'Abeau Chesne, BP 701, 38297, Saint Quentin Fallavier).
Dans la cuve d'un spectrophotomètre (Perkin-Elmer, Lambda 2) thermostaté à 37°C, dont la longueur d'onde de mesure est réglée à 340 nm, sont introduits 0,965 ml de ce tampon (préalablement porté à 37°C). 0,035 mL de suspension enzymatique à 37°C sont introduits dans la cuve concomitamment à l'enregistrement ( correspondant à une augmentation de la densité optique à 340 nm). La vitesse maximale de réaction est relevée.

As for `O=C1NC(=O)C(=Cc2ccccc2Oc2ccc(C34CC5CC(CC(C5)C3)C4)cc2)S1` [compound 11, (5Z)-5-[2-[4-(1-adamantylphenoxy)benzylidene]-1,3-thiazolidine-2,4-dione], the IC50 turned out to be 1.4 µM.

The record behind these values is patent publication EP1739083A1, “Benzylidene-1,3-thiazolidine-2,4-dione compounds, uses thereof and compositions for stimulating or inducing the growth and/or for reducing the loss and/or for increasing the density of keratin fibres” (L'Oreal, priority 2005, dated 2007).
